The values that follow are results of earlier work, collected in patent US10322143B2.

The chains behind the UniProt entries cited, without tags or fusion partners. Residues count along the entry.
UniProt Q9UNA0, 262-930 limits assumed: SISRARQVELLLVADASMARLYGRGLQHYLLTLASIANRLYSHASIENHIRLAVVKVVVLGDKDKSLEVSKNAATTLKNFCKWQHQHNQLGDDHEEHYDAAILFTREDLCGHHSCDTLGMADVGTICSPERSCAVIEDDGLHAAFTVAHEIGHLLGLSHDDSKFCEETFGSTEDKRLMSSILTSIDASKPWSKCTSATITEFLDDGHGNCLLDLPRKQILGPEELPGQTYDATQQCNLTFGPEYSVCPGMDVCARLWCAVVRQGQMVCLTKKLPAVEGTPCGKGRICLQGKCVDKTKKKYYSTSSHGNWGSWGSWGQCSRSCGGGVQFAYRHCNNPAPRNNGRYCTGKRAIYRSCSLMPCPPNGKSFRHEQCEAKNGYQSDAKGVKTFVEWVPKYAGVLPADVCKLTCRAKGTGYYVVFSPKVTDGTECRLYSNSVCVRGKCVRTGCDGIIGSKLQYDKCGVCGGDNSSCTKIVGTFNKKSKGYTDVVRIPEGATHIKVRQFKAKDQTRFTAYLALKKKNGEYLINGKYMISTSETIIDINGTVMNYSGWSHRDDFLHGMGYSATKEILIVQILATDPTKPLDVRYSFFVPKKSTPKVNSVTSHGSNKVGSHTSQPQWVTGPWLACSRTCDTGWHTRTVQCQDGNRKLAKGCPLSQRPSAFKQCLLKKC

The structures appear in SMILES notation.

For the series, the target named is ADAMTS5 (Homo sapiens (Human), UniProt Q9UNA0). Particulars: read-out: TS-5 IC50; Deng 2012 Table 4, series 19; cited from earlier work.

In the case of `C=CCCNc1nc(NCc2csc(-c3ccccc3)n2)nc(N2CCC[C@@H]2CNS(=O)(=O)C2CC2)n1`, the IC50 (commonly the concentration needed to halve the response being measured) is greater than 10 µM.
